Test results: US20150368338A1 (Janssen / Centocor, published 2015)
Residue numbers refer to the chain shown, from its start.

How the values were obtained:
IFN-αB2 [1] = target: T1, IFN-αB2 (human, UniProt P32881 24-189); assay: cell-based or functional assay
IFN-αB2 [2] = target: T1, IFN-αB2; assay: ProteOn SPR, cell supernatant;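 also: each binding measurement used just a single antigen concentration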
IFN-αB2 [3] = target: T2, IFN-αB2 (human, UniProt P32881 24-189); assay: ProteOn, one antigen concentration
T2 construct: also called IFN-α8; IFN alpha B2

B1: IFWM3332 (antibody, IgG1, V domains shown)
VH: EVQLVQSGAEVKKPGESLKISCKGSGYSFTSYWIGWVRQMPGKGLEWMGIIDPSDSDTRYSPSFQGQVTISADKSISTAYLQWSSLKASDTAMYYCARHPGLNWAPDFDYWGQGTLVTVSS
VL: DIQMTQSPSSLSASVGDRVTITCRASQSIANTNLNWYQQKPGKAPKLLIHWASSLQSGVPSRFSGSGSGTDFTLTISSLQPEDFATYYCQQWYDNPLTFGQGTKVEIK
IC50, ISRE assay (IFN-αB2 [1]): 0.327 nM

B2: IFWM3379 (antibody, IgG1, V domains shown)
VH: B1 VH with N103A
VL: DIQMTQSPSSLSASVGDRVTITCRASQSIDGSLNWYQQKPGKAPKLLIYFASSLQSGVPSRFSGSGSGTDFTLTISSLQPEDFATYYCQQSYDFPLTFGQGTKVEIK
notes: mAb; IgG1/kappa said of the parent and of selected mAbs; also called IFWB3114
Kd (IFN-αB2 [2]): 0.022 nM

B3: IFWM3381 (antibody, IgG1, V domains shown)
VH: B1 VH with N103A
VL: B2 VL with D30G, G31S, S32F, D93S, F94I, L96I
notes: mAb; IgG1/kappa said of the parent and of selected mAbs; also called IFWB3116
Kd (IFN-αB2 [2]): 0.058 nM

B4: IFWM3382 (antibody, IgG1, V domains shown)
VH: B1 VH with N103A
VL: B2 VL with D30G, G31S, S32A
notes: mAb; IgG1/kappa said of the parent and of selected mAbs; also called IFWB3117
Kd (IFN-αB2 [2]): 0.027 nM

B5: IFWM3383 (antibody, IgG1, V domains shown)
VH: B1 VH with N103A
VL: B2 VL with D30S, G31K, S32F, Y92N, D93T, F94L, L96F
notes: mAb; IgG1/kappa said of the parent and of selected mAbs; also called IFWB3118
Kd (IFN-αB2 [2]): 0.033 nM

B6: IFWM3386 (antibody, IgG1, V domains shown)
VH: B1 VH with N103A
VL: B2 VL with D30A, G31E, S32F, Y92I
notes: mAb; IgG1/kappa said of the parent and of selected mAbs; also called IFWB3121
Kd (IFN-αB2 [2]): 0.016 nM

B7: IFWM3387 (antibody, IgG1, V domains shown)
VH: B1 VH with N103A
VL: B2 VL with D30G, S32F, D93S, F94L, L96I
notes: mAb; IgG1/kappa said of the parent and of selected mAbs; also called IFWB3122
Kd (IFN-αB2 [2]): 0.036 nM

B8: IFWM3388 (antibody, IgG1, V domains shown)
VH: B1 VH with N103A
VL: B2 VL with D30G, G31K
notes: mAb; IgG1/kappa said of the parent and of selected mAbs; also called IFWB3123
Kd (IFN-αB2 [2]): 0.026 nM

B9: IFWM3389 (antibody, IgG1, V domains shown)
VH: B1 VH with N103A
VL: B2 VL with G31D, S32F, Y92H, D93T, F94L
notes: mAb; IgG1/kappa said of the parent and of selected mAbs; also called IFWB3124
Kd (IFN-αB2 [2]): 0.01 nM

B10: IFWM3391 (antibody, IgG1, V domains shown)
VH: B1 VH with N103A
VL: B2 VL with D30N, G31N, S32F, Y92F, D93N, F94L, L96I
notes: mAb; IgG1/kappa said of the parent and of selected mAbs; also called IFWB3126
Kd (IFN-αB2 [2]): 0.029 nM

B11: IFWM3393 (antibody, IgG1, V domains shown)
VH: B1 VH with N103A
VL: B2 VL with D30T, G31S, Y92F, F94L
notes: mAb; IgG1/kappa said of the parent and of selected mAbs; also called IFWB3128
Kd (IFN-αB2 [2]): 0.07 nM

B12: IFWM3395 (antibody, IgG1, V domains shown)
VH: B1 VH with N103A
VL: B2 VL with D30S, G31K, S32F, L96I
notes: mAb; IgG1/kappa said of the parent and of selected mAbs; also called IFWB3130
Kd (IFN-αB2 [2]): 0.003 nM

B13: IFWM3396 (antibody, IgG1, V domains shown)
VH: B1 VH with N103A
VL: B2 VL with D30S, G31E, S32Y, Y92H, D93S, F94L, L96I
notes: mAb; IgG1/kappa said of the parent and of selected mAbs; also called IFWB3131
Kd (IFN-αB2 [2]): 0.048 nM

B14: IFWM3397 (antibody, IgG1, V domains shown)
VH: B1 VH with N103A
VL: B2 VL with D30T, S32F, F50A, Y92H
notes: mAb; IgG1/kappa said of the parent and of selected mAbs; also called IFWB3132
Kd (IFN-αB2 [2]): 0.042 nM

B15: IFWM3398 (antibody, IgG1, V domains shown)
VH: B1 VH with N103A
VL: B2 VL with D30N, S32V, Y92H
notes: mAb; IgG1/kappa said of the parent and of selected mAbs; also called IFWB3133
Kd (IFN-αB2 [2]): 0.032 nM

B16: IFWM3403 (antibody, IgG1, V domains shown)
VH: B1 VH with N103A
VL: B2 VL with D30R, G31N, Y49K, F50W, S91L, F94W
notes: mAb; IgG1/kappa said of the parent and of selected mAbs; also called IFWB3138
Kd (IFN-αB2 [2]): 0.008 nM

B17: IFWM3418 (antibody, IgG1, V domains shown)
VH: B1 VH
VL: B2 VL with D30A, S32F, F50Y, D93S, F94I, L96I
notes: mAb; IgG1/kappa said of the parent and of selected mAbs; also called IFWB3153
Kd (IFN-αB2 [2]): 0.206 nM

B18: IFWM3419 (antibody, IgG1, V domains shown)
VH: B1 VH with N103A
VL: B2 VL with D30A, S32F, F50Y, D93S, F94I, L96I
notes: mAb; IgG1/kappa said of the parent and of selected mAbs; also called IFWB3154
Kd (IFN-αB2 [2]): 0.09 nM

B19: IFWM3420 (antibody, IgG1, V domains shown)
VH: B1 VH with R59A
VL: B2 VL with D30A, S32F, F50Y, D93S, F94I, L96I
notes: mAb; IgG1/kappa said of the parent and of selected mAbs; also called IFWB3155
Kd (IFN-αB2 [2]): 0.061 nM

B20: IFWM3370 (antibody, IgG1, V domains shown)
VH: B1 VH with R59A
VL: B1 VL with A30D, T32S, N33Y, H50Y, W51G, W92G, Y93W, N95W
notes: mAb; IgG1/kappa said of the parent and of selected mAbs; also called IFWB3105
Kd (IFN-αB2 [2]): 0.024 nM

B21: IFWM3371 (antibody, IgG1, V domains shown)
VH: B1 VH with R59A
VL: B1 VL
notes: mAb; IgG1/kappa said of the parent and of selected mAbs; also called IFWB3106
Kd (IFN-αB2 [2]): 0.023 nM

B22: IFWM3372 (antibody, IgG1, V domains shown)
VH: B1 VH with R59A
VL: B1 VL with A30D, T32N, H50Y, W51A, W92G, N95W
notes: mAb; IgG1/kappa said of the parent and of selected mAbs; also called IFWB3107
Kd (IFN-αB2 [2]): 0.154 nM

B23: IFWM3375 (antibody, IgG1, V domains shown)
VH: B1 VH with R59A
VL: B1 VL with A30R, T32N, N33Y, H50Y, W51A, W92G, N95T
notes: mAb; IgG1/kappa said of the parent and of selected mAbs; also called IFWB3110
Kd (IFN-αB2 [2]): 0.033 nM

B24: IFWM3376 (antibody, IgG1, V domains shown)
VH: B1 VH with R59A
VL: B1 VL with A30S, T32S, N95H
notes: mAb; IgG1/kappa said of the parent and of selected mAbs; also called IFWB3111
Kd (IFN-αB2 [2]): 0.037 nM

B25: IFWM3377 (antibody, IgG1, V domains shown)
VH: B1 VH with R59A
VL: B1 VL with A30R, W92G, N95T, L97F
notes: mAb; IgG1/kappa said of the parent and of selected mAbs; also called IFWB3112
Kd (IFN-αB2 [2]): 0.058 nM

B26: IFWM3378 (antibody, IgG1, V domains shown)
VH: B1 VH with R59A
VL: B1 VL with T32N, N33D, W92D, N95W
notes: mAb; IgG1/kappa said of the parent and of selected mAbs; also called IFWB3113
Kd (IFN-αB2 [2]): 0.141 nM

B27: IFWM3409 (antibody, IgG1, V domains shown)
VH: B1 VH with N103A
VL: B1 VL with A30D, T32S, N33Y, H50Y, W51G, W92G, Y93W, N95W
notes: mAb; IgG1/kappa said of the parent and of selected mAbs; also called IFWB3144
Kd (IFN-αB2 [2]): 0.018 nM

B28: IFWM3415 (antibody, IgG1, V domains shown)
VH: B1 VH with N103A
VL: B1 VL with A30S, T32S, N95H
notes: mAb; IgG1/kappa said of the parent and of selected mAbs; also called IFWB3150
Kd (IFN-αB2 [2]): 0.015 nM

B29: IFWM3417 (antibody, IgG1, V domains shown)
VH: B1 VH with N103A
VL: B1 VL with T32N, N33D, W92D, N95W
notes: mAb; IgG1/kappa said of the parent and of selected mAbs; also called IFWB3152
Kd (IFN-αB2 [2]): 0.036 nM

B30: IFWM3421 (antibody, IgG1, V domains shown)
VH: B1 VH
VL: B2 VL with S32F, F94L, L96I
IC50, ISRE assay (IFN-αB2 [1]): 0.016 nM

B31: IFWM3423 (antibody, IgG1, V domains shown)
VH: B1 VH with N103A
VL: B2 VL with S32F, F94L, L96I
IC50, ISRE assay (IFN-αB2 [1]): 0.011 nM

B32: IFWM3304 (antibody, IgG1, V domains shown)
VH: B1 VH
VL: B2 VL with D30G, G31S, S32A
IC50, ISRE assay (IFN-αB2 [1]): 0.039 nM

B33: IFWM3307 (antibody, IgG1, V domains shown)
VH: B1 VH
VL: B2 VL with D30G, G31D, S32F, S91A, Y92L
IC50, ISRE assay (IFN-αB2 [1]): 0.247 nM

B34: IFWM3413 (antibody, IgG1, V domains shown)
VH: B1 VH with N103A
VL: DIQMTQSPSSLSASVGDRVTITCRASQSINYLNWYQQKPGKAPKLLIYGASSLQSGVPSRFSGSGSGTDFTLTISSLQPEDFATYYCQQSHDWPITFGQGTKVEIK
notes: mAb; IgG1/kappa said of the parent and of selected mAbs; also called IFWB3148
Kd (IFN-αB2 [2]): 0.058 nM

B35: IFWM3406 (antibody, IgG1, V domains shown)
VH: B1 VH with N103A
VL: B34 VL with Y31N, G49W, S90G, H91Y, W93T, I95F
notes: mAb; IgG1/kappa said of the parent and of selected mAbs; also called IFWB3141
Kd (IFN-αB2 [2]): 0.039 nM

B36: IFWM3332 (antibody, V domains shown)
VH: B1 VH
VL: B1 VL
notes: VH IFWH591, VL IFWL1074; converted mAb; also called IFWB3067
Kd (IFN-αB2 [3]): 0.055 nM

B37: IFWM3333 (antibody, V domains shown)
VH: B1 VH
VL: B1 VL with A30D, T32N, H50Y, W51A, W92G, N95W
notes: VH IFWH591, VL IFWL1076; converted mAb; also called IFWB3068
Kd (IFN-αB2 [3]): 0.137 nM

B38: IFWM3334 (antibody, V domains shown)
VH: B1 VH
VL: B1 VL with A30R, T32N, N33S, H50Y, W51A, W92D, D94N, N95W
notes: VH IFWH591, VL IFWL1082; converted mAb; also called IFWB3069
Kd (IFN-αB2 [3]): 0.436 nM

B39: IFWM3336 (antibody, V domains shown)
VH: B1 VH
VL: B1 VL with A30R, T32N, N33Y, H50Y, W51A, W92G, N95T
notes: VH IFWH591, VL IFWL1085; converted mAb; also called IFWB3071
Kd (IFN-αB2 [3]): 0.046 nM

B40: IFWM3337 (antibody, V domains shown)
VH: B1 VH
VL: B1 VL with A30S, T32S, N95H
notes: VH IFWH591, VL IFWL1087; converted mAb; also called IFWB3072
Kd (IFN-αB2 [3]): 0.022 nM

B41: IFWM3338 (antibody, V domains shown)
VH: B1 VH
VL: B1 VL with A30R, W92G, N95T, L97F
notes: VH IFWH591, VL IFWL1091; converted mAb; also called IFWB3073
Kd (IFN-αB2 [3]): 0.108 nM

B42: IFWM3339 (antibody, V domains shown)
VH: B1 VH
VL: B1 VL with T32N, N33D, W92D, N95W
notes: VH IFWH591, VL IFWL1093; converted mAb; also called IFWB3074
Kd (IFN-αB2 [3]): 0.094 nM

B43: IFWM3328 (antibody, V domains shown)
VH: B1 VH
VL: B34 VL with Y31N, G49W, S90G, H91Y, W93T, I95F
notes: VH IFWH591, VL IFWL1064; converted mAb; also called IFWB3063
Kd (IFN-αB2 [3]): 0.132 nM

B44: IFWM3335 (antibody, V domains shown)
VH: B1 VH
VL: B34 VL
notes: VH IFWH591, VL IFWL1084; converted mAb; also called IFWB3070
Kd (IFN-αB2 [3]): 0.111 nM
